{"source": "ChEMBL document CHEMBL5321216", "about": "“Discovery of bipyridine amide derivatives targeting pRXRα-PLK1 interaction for anticancer therapy” (Eur J Med Chem, 2023)", "organism": "Homo sapiens", "experiment": "Selectivity index, ratio of IC50 for HK-2 cells to IC50 for human MDA-MB-231 cells"}
{"smiles": "O=C(/C=C/c1ccccc1)Nc1cc(-c2ccnc(N3CCC(CO)CC3)c2)ccn1", "values": [{"measurement": "Ratio IC50", "result": 23.2}]}
